# Results from patent publication US6447748B1, “Benzamide compounds for cancer imaging and therapy” (Research Corporation Technologies, Inc., priority 1993, dated 2002).
# Chains of the proteins cited; added tags and fusions are not shown.
# UniProt Q5BJF2, whole entry: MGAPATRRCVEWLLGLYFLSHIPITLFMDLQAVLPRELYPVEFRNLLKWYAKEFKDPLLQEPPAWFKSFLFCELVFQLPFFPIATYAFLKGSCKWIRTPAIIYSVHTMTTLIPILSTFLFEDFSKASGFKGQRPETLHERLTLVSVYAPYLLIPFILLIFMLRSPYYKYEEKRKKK
# pKi: −log10 of the molar value.
# Target: T1, sigma sites labeled by 4-[125I]BP in MCF-7 breast cancer cells (Homo sapiens, UniProt Q5BJF2)
# T1 construct: Intact adherent cells were washed (2×1 mL) with 10 mM phosphate buffer; endogenous in cells; host or cells: intact adherent MCF-7 breast cancer cells
# Experiment: Homologous and heterologous competition for 4-[125I]BP binding in intact MCF-7 cells
# Details: 37° C. for 1 hr., unit printed in b378 only, not in the table
row,Substance,pKi
1,"(+)SKF 10,047",< 5.00
2,"(−)SKF 10,047",< 5.00
